# Values quoted from earlier work, collected in patent US20100119624A1, “BENZISOXAZOLE MODULATORS OF D2 RECEPTOR AND/OR 5-HT2A RECEPTOR” (AUSPEX PHARMACEUTICALS, INC., priority 2008, published 2010).
# Sequences of proteins named here, by UniProt entry; tags and fusion partners are left off.
# UniProt P14416, whole entry: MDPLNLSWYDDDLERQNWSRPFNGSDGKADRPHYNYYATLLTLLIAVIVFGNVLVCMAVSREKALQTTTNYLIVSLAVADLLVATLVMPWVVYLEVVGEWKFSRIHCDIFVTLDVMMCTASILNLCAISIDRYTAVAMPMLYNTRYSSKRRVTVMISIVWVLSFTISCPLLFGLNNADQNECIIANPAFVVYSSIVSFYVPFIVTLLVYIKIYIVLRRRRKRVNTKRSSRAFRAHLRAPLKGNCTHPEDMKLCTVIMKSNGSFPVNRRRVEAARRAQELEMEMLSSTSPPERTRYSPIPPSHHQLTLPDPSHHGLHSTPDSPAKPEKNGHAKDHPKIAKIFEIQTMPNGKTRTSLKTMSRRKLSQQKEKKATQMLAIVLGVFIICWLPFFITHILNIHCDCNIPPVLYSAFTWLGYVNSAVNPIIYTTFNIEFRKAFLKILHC
# Biological target: D2 receptors (Homo sapiens, UniProt P14416)
# Details: as active as risperidone
smiles,measurement,value
Cc1nc2n(c(=O)c1CCN1CCC(c3noc4cc(F)ccc34)CC1)CCCC2O (stereo not shown) [9-Hydroxyrisperidone],activity relative to risperidone at D2 receptors,approximately 70%
